Earlier results as cited in patent publication US8835436B2 (priority 2009, dated 2014).

The chains behind the UniProt entries cited, without tags or fusion partners. Where a name states a change or a piece, a line headed by the entry shows the natural chain unless it says otherwise.
UniProt P28335: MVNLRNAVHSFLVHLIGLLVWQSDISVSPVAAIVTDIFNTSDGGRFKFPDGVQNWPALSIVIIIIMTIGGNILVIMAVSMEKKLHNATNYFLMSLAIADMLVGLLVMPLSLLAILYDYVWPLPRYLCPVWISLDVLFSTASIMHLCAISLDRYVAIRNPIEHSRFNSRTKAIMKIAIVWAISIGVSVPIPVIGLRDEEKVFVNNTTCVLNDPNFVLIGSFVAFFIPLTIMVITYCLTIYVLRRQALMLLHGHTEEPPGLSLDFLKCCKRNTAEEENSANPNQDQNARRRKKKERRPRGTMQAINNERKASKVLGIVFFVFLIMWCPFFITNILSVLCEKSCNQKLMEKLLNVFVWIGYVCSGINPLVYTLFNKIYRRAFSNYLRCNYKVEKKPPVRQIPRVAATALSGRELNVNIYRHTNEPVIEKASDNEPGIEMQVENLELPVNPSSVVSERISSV

Molecular target: human recombinant 5-HT2C receptor (Homo sapiens (Human), UniProt P28335)
Details: read-out: Binding affinity to serotonin receptor 5-HT2C: IC50; cited from earlier work

In the case of `CCc1nn(CCCN2CCN(c3cccc(Cl)c3)CC2)c(=O)n1CCOc1ccccc1` [Nefazodone, nefazodone], the IC50 is listed as 160 nM.
